# Data as given in patent US20230384333A1 (priority 2020, published 2023).
# The chains behind the UniProt entries cited, without tags or fusion partners.
# UniProt P28223, whole entry I181A/E264Q, looked up: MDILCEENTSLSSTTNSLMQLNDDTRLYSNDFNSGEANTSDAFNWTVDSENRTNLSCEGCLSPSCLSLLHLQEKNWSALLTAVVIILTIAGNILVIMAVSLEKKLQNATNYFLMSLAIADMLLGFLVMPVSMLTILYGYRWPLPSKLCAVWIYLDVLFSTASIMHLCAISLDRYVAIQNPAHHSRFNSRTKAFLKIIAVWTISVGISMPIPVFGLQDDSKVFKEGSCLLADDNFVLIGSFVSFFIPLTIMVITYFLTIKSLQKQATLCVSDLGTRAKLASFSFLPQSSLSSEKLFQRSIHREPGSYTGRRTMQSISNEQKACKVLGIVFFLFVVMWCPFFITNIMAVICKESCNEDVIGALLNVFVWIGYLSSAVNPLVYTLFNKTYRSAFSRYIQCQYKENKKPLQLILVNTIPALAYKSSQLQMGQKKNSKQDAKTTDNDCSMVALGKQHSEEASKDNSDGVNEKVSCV
# Key:
# psychLight1 = psychLight1 (Homo sapiens, UniProt P28223, E264Q/I181A); assay: cell-based; conditions: HEK-293T
# Description: HEK293T cells were grown in DMEM, supplemented with fetal bovine serum (FBS) and penicillin-streptomycin. Cells were trans-fected with Effectene according to the manufacturer's instructions. Prior to imaging, cells were washed with Hank's Balanced Salt Solution (HBSS) supplemented with 2 mM MgCl2 and 2 mM CaCl2). All images were collected in HBSS containing Mg^2+ and Ca^2+.
# HEK293T cells were plated and transfected concurrently 24 h prior to each experiment using the QIAGEN Effectene Transfection
# Dose-response experiments were performed using an Automate Perfusion System. Cells (HEK293T) were grown on 12 mm cover-slips and transfected with psychLight1. The coverslips were then placed into a coverslip holder and washed with 5 mL of HBSS containing 2 mM MgCl2 and 2 mM CaCl2). Cells were perfused first with 5 mL of 0.1% DMSO, then drugs in ascending concentrations from 1 pM to […] were added, with the concentration of DMSO being held constant at 0.10%. […] For the competition studies described in FIG. 19, HEK293T cells were prepared as described above; however, the cells were first exposed to 5 mL of 0.2% DMSO. […] Finally, the DF/F was calculated using the average of the baseline (0.1 or 0.2% DMSO) and the average intensity between each dosage over the average of the baseline.
# psychLight2 = type: cell-based, human
# Description: Compounds unlikely to bind to the sensor should produce minimal to no response in either agonist or antagonist mode. Therefore, a ligand score was calculated as: […]
smiles,measurement,setting,value
"COc1cc(CC(C)N)c(OC)cc1I (centres unmarked) [DOI, 2,5-dime-thoxy-4-iodoamphetamine]",Emax,psychLight1,52.9%
"CCN(CC)C(=O)[C@@H]1C=C2c3cccc4[nH]cc(c34)C[C@H]2N(C)C1 [LSD, lysergic acid diethylamide]",ligand score,psychLight2,21 and 20.9 and 23.0

# Where “and” joins values, the source holds several entries; their conditions need not be identical. Identical values can stand only once.
